Structures are written as SMILES. The entries are a selection whose mix differs from that of the whole data set. Calls of active or inactive are those of the source. No stated cut-off is given here; in the data, active means activation above about 80%; inactive means the rest.

Chains of the proteins cited; added tags and fusions are not shown.
UniProt P21453, whole entry, looked up: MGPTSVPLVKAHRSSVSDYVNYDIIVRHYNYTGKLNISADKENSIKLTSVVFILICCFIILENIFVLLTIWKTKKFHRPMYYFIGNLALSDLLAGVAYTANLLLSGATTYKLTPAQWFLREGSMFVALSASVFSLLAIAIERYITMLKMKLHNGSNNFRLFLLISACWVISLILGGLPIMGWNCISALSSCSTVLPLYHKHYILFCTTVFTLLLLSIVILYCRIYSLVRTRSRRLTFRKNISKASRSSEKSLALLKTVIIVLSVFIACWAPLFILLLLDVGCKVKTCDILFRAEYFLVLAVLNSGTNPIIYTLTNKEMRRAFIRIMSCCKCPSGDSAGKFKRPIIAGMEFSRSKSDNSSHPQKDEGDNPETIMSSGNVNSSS

The test addresses Sphingosine 1-phosphate receptor 1 (Homo sapiens) (UniProt P21453). The experiment in a line: activates the human S1P1 receptor (AID 1044). To be noted: S1P1 agonist cell-based reporter assay; at 4.5 µM; hits give high values. On the technique in general: Reporter assays use an easily measured gene product as a stand-in for the process of interest.
`O=C(OC1CN2CCC1CC2)c1cccc([N+](=O)[O-])c1` (configuration not stated): the activation was inactive: -12%.

In the case of `CCOC(=O)/C(=N/Nc1ccc([N+](=O)[O-])cc1)N1CC1`, the activation is inactive: -1.01%.

(Values after PubChem BioAssay AID1044 (The Scripps Research Institute Molecular Screening Center, 2008).)
